Measured values as given in ChEMBL document CHEMBL4052712, “Design and optimization of highly-selective, broad spectrum fungal CYP51 inhibitors” (Bioorg Med Chem Lett, 2017).

Chains of the proteins cited; added tags and fusions are not shown.
UniProt P11712, whole entry: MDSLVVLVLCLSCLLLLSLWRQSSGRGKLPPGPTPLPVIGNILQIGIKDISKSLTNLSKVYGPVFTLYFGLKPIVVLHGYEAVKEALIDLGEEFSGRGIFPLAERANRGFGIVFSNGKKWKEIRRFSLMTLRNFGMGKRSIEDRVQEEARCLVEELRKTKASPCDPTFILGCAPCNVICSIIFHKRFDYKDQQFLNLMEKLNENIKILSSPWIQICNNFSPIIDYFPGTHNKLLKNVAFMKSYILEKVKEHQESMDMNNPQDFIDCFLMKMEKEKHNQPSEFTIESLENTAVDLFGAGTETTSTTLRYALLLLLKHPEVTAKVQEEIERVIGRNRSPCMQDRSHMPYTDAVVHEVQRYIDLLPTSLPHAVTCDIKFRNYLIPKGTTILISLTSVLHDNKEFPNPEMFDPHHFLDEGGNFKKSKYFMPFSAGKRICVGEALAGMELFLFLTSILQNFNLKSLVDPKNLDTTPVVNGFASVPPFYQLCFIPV

Assays:
[1] = target: Cytochrome P450 2C9 (Homo sapiens, UniProt P11712); test: Inhibition of CYP2C9 in human hepatocyte microsomes using diclofenac substrate by HPLC/MS/MS method; type: ADME
[2] = target: Cytochrome P450 2C19, Homo sapiens (UniProt P33261); test: Inhibition of CYP2C19 in human hepatocyte microsomes using omeprazole substrate by HPLC/MS/MS method

Question: For `OC(Cn1cncn1)(Cn1cncn1)c1ccc(F)cc1F` [FLUCONAZOLE], which IC50 [1] is on record?
Answer: Its IC50 is 34 µM.

Question: What about the IC50 [2] of the same compound?
Answer: The IC50 was 13 µM.
